Target: T1, PI3K alpha (p110 alpha) (Homo sapiens, UniProt P42336)
T1 construct: purchased Upstate Cell Signaling Solutions, Charlottesville, Va
Test: PI3K p110α (alpha) binding assay (Example 901)
Conditions: read-out: IC50, inhibition of PI3K alpha (binding to p110 alpha)

Amino acid sequences for entries named in this document (tags omitted).
UniProt P42336, whole entry: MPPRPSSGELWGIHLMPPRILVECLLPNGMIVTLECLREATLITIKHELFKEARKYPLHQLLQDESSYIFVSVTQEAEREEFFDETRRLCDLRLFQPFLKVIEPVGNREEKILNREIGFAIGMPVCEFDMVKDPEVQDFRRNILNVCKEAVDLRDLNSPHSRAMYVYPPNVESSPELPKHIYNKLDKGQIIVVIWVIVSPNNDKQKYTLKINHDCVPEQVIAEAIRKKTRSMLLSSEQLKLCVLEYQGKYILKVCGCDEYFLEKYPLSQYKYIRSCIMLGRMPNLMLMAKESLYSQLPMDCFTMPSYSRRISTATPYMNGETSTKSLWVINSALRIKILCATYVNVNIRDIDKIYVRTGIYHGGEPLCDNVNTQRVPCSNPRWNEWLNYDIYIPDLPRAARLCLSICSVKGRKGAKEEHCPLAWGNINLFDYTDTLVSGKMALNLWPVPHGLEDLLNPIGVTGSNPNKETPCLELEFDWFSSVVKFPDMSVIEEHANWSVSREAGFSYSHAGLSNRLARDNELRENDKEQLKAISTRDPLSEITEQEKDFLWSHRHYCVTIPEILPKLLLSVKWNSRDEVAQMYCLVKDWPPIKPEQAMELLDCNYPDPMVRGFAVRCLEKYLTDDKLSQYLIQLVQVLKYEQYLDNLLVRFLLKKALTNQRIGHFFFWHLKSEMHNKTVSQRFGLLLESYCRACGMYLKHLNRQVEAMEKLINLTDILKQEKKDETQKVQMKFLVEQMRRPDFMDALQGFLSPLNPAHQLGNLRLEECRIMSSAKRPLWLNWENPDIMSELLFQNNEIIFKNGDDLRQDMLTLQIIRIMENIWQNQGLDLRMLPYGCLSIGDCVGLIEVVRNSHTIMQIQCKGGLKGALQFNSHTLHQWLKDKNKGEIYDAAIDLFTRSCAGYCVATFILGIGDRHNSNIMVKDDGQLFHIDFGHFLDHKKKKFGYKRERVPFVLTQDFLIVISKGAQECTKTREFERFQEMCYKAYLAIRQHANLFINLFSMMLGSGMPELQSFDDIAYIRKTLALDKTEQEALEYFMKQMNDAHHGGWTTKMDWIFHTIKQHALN

Compound: Cc1nc(-c2cn3c(n2)-c2ccc(-c4cnn(C(C)(C)C(N)=O)c4)cc2OCC3)n(C(C)C)n1 [compound 196, 2-(4-(2-(1-isopropyl-3-methyl-1H-1,2,4-triazol-5-yl)-5,6-dihydrobenzo[f]imidazo[1,2-d][1,4]oxazepin-9-yl)-1H-pyrazol-1-yl)-2-methylpropanamide]
- IC50: 0.5 nM

— patent US9198918B2, “Benzoxazepin PI3K inhibitor compounds and methods of use” (Genentech, Inc., priority 2009, dated 2015)
